# Source: ChEMBL document CHEMBL1134604, “2-Alkynyl-8-aryl-9-methyladenines as novel adenosine receptor antagonists: their synthesis and structure-activity relationships toward hepatic glucose production induced via agonism of the A(2B) receptor” (J Med Chem, 2001)
# Biological target: T1, Adenosine receptor A2b (Rattus norvegicus, UniProt P29276)
# T1 sequence (P29276 whole entry): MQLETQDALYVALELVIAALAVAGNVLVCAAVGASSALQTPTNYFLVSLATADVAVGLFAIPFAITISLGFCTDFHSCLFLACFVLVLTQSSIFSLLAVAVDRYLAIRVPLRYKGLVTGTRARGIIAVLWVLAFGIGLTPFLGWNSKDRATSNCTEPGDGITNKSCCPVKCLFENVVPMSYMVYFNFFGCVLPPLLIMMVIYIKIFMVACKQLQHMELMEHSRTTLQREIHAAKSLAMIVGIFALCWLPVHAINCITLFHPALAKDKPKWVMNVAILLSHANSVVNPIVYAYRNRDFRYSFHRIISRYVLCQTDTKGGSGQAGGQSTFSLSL
# Experiment: Inhibitory activity on N-ethylcarboxamidoadenosine (NECA)-induced glucose production in primary cultured rat hepatocytes
# Assay type: functional, cell-based, Hepatocyte
compound,measurement,value
CCCn1c(=O)c2c(nc(/C=C/c3ccc(OC)c(OC)c3)n2C)n(CCC)c1=O,pIC50,< 5.00

# pIC50: −log10 of the molar value.
